Apparent affinities of Ab-91 variants for a coronavirus HR2 peptide

Data: MIT Lincoln Laboratory AlphaSeq set, Engelhart et al. 2022, doi:10.1038/s41597-022-01779-4, as distributed in FLAb.

Target: peptide PDVDLGDISGINAS, taken from heptad repeat 2 (HR2) of SARS-CoV-2 spike.

Parent scFv Ab-91: VL joined to VH by the linker GGGGSGGGGSGGGGS. Changes lie in the heavy chain CDRs alone.
VL: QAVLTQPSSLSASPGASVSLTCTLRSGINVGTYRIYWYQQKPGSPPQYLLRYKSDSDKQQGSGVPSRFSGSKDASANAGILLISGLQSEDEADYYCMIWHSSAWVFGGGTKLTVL
VH: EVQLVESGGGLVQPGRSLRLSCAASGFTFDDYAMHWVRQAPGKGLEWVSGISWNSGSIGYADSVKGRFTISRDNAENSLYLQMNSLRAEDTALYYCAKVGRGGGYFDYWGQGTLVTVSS

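Phage display of a naive human antibody library on the peptide gave the parent. Variants in AAYL51 differ from the parent at up to three CDR positions; double and triple changes were sampled at random. Affinity was read by AlphaSeq, a pooled yeast mating assay with surface-displayed partners. Binding brings cells together so that they mate, and sequencing counts the barcode pairs among the diploids. Scores were corrected for input abundance and mapped to Kd with protein pairs of known affinity run in the same pool. Mating was done three times.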

Each variant is given by its three heavy chain CDRs, as the data file delimits them; those of the parent are GFTFDDYAMH, GISWNSGSIGYADSVK, VGRGGGYFDY. Scale: log10 of Kd in nM, estimated from mating counts; low values are strong binders. Replicates are averaged; those with no signal do not enter the mean. A pair that was not seen in that replicate is written "n.d."; this usually means weak binding, but a binder can also be missed. Nonspecific signal, from three strains lacking the peptide, appeared in 21% of pairings of library AAYL51, centred on 4.54 (5% of these signals below 3.26); values are not corrected for it. Also given: how often the same scFv was detected with the empty control strains, with their mean in brackets.

CDR-H1 | CDR-H2 | CDR-H3 | replicates, log10 nM | mean log10 Kd (nM) | signal with controls
GFTFDDYAMH | GISWNSGSIGYADSVK | FRRGGYYFDY | n.d. n.d. n.d. | n.d. | 2/9 (3.94)
GFTFYDYAMH | GTSWNSGSIGYADSVK | VGRGGGYFDY | n.d. n.d. 3.95 | 3.95 | 1/9 (4.75)
GFTFDDYAMH | GISWNSGSAGYADSVT | VGDGGGYFDY | 2.47 2.15 2.35 | 2.32 | 1/9 (4.17)
GFTFDDYAMH | GISWNSGSIGNADSVK | VGRGGGYFDN | 5.35 3.87 4.55 | 4.59 | 4/9 (4.84)
GFTFDDYAMH | GPSWVSGSIGYADSVK | VGIGGGYFDY | n.d. n.d. n.d. | n.d. | 0/9
GFTFDDYAMH | GISWNSGSIGHADSVK | VGRGGGYNDY | 2.95 3.65 3.34 | 3.31 | 7/9 (4.66)
GFTFDDYAMH | GISWNVGSIMYADSVK | VGRGGFYFDY | 4.92 n.d. n.d. | 4.92 | 1/9 (3.71)
VFTFDDYAAH | GISWNSGSIGYADSVK | VGRGGGYFDW | n.d. 5.55 n.d. | 5.55 | 4/9 (5.62)
GFTFDDYAME | RISWNSGSIGYADSVK | VGRGGGYRDY | 5.80 5.44 5.73 | 5.66 | 3/9 (4.94)
GFTFDDYAMH | GISWNSGSISHADSVK | VGVGGGYFDY | 4.76 n.d. 4.35 | 4.56 | 5/9 (5.23)
GFTFDDYAMH | GISWNSTCIGYADSVK | VGRGGGYRDY | n.d. n.d. n.d. | n.d. | 0/9
YFTFDLYAMH | GISWNSGSIGYADSVK | VGRGGGYFDY | 2.80 2.95 3.00 | 2.92 | 0/9
GFTFDDYAFH | GCSWNSGSIGYARSVK | VGRGGGYFDY | 4.79 n.d. 4.99 | 4.89 | 3/9 (5.53)
SFTWDDYAMH | GISWNSGSIGYADSEK | VGRGGGYFDY | 4.56 n.d. n.d. | 4.56 | 3/9 (4.59)
DFTFDDYAMH | GISWNSGHIGYADSVK | VGRGGGYFDY | 3.90 6.17 n.d. | 5.04 | 3/9 (4.91)
GFTFDDYAMH | GISWVSGSIGYADSVI | VGRGGGYFEY | n.d. n.d. n.d. | n.d. | 2/9 (3.74)
GFTVDDYAMM | GISWPSGSIGYADSVK | VGRGGGYFDY | n.d. 3.97 n.d. | 3.97 | 1/9 (3.61)
QFTFDDYAMH | GCWWNSGSIGYADSVK | VGRGGGYFDY | n.d. n.d. n.d. | n.d. | 2/9 (4.29)
GFTFDDYAMH | GISWNSGSIGRADSVK | VGRGGGYFWP | n.d. n.d. n.d. | n.d. | 2/9 (4.09)
GFTFDDYPMH | GISWNSGSIGFADSVK | VGRGGGRFDY | 2.14 3.17 1.68 | 2.33 | 2/9 (3.28)
GFTFDDYAMH | GISGNSGSIWYADSVK | VGRGGNYFDY | n.d. n.d. n.d. | n.d. | 0/9
GFTFDIAAHH | GISWNSGSIGYADSVK | VGRGGGYFDY | 1.85 1.87 1.72 | 1.81 | 3/9 (4.80)
GRTFDDYAMH | GISWNSGSPGYADSVK | VGRGGGYRDY | n.d. n.d. n.d. | n.d. | 2/9 (3.73)
GFATDDYAMH | GISWNSGSIGYADSVK | VGPGGGYFDY | 2.64 3.06 2.50 | 2.73 | 2/9 (4.83)
GFTFDEYAMQ | GISWNSGSIGYADSVK | VGRGGEYFDY | n.d. n.d. n.d. | n.d. | 0/9
GFTFDCYAMH | GISWNWGSIGYADSVK | VGCGGGYFDY | 4.45 n.d. n.d. | 4.45 | 3/9 (4.50)
GFTFDDYAMH | GISWNSGSIGYADSVF | VGRGEGYFDT | 5.36 5.35 n.d. | 5.35 | 5/9 (5.06)
GFQFDDYAMH | GISWGSGSIGYADSVK | VGRGGGYFDY | 1.58 1.47 0.96 | 1.34 | 2/9 (3.80)
GFTFDDYAMH | MISWNSGSIGYADSVK | VGRGGGYFDS | n.d. n.d. n.d. | n.d. | 0/9
GFTFDDYAMH | GISWNSGSIGYAFDVK | VGRGGGYFTY | n.d. n.d. n.d. | n.d. | 0/9
GPTFDDYAMH | GQSWNSESIGYADSVK | VGRGGGYFDY | 5.61 4.79 5.54 | 5.32 | 4/9 (4.65)
PFTFDDYAMH | GISYNSGSIGYADSVK | FGRGGGYFDY | n.d. 4.75 n.d. | 4.75 | 2/9 (4.14)
GFTWDDYAMH | GICWNSGSIGYADSVE | VGRGGGYFDY | n.d. 5.54 n.d. | 5.54 | 3/9 (4.30)
GFTFDDYAMH | GISWQSGSIGYATSVK | VGRGGGYFDY | 4.16 n.d. n.d. | 4.16 | 2/9 (4.28)
GFTFDDYAMH | GISWQSISIGYADSVK | VGRGGGYFDI | n.d. n.d. n.d. | n.d. | 0/9
GFTFTDYAMH | YISWNSGSIGYADSVW | VGRGGGYFDY | n.d. 4.42 n.d. | 4.42 | 0/9
GFTFDDYAMH | GISYNSGSIGYADRVS | VGRGGGYFDY | 2.18 2.28 2.75 | 2.40 | 0/9
GFTFDDYAMK | GISWPSGSIGYADSVK | VGRGTGYFDY | n.d. n.d. n.d. | n.d. | 1/9 (4.43)
GFTFDDAAMH | GISWNSGCIGYADSVK | WGRGGGYFDY | n.d. n.d. n.d. | n.d. | 1/9 (3.67)
NFTFDDYAMH | GIYWNSGSIGYADSVK | VGRGGGYFDY | 4.49 n.d. n.d. | 4.49 | 1/9 (4.57)
GFTFDDYAMH | GPSWNSGSIGYADSVK | VQRGGGYFDY | 4.51 n.d. 4.62 | 4.56 | 1/9 (5.04)
GFTKDDYAMH | GISWNSGSIGYADSVK | VYRGGGYFFY | 3.52 n.d. n.d. | 3.52 | 0/9
GFTFDDYAMH | GISWNSGSIGYADSVK | QGRGSGYFDY | n.d. n.d. n.d. | n.d. | 2/9 (4.33)
GFTFDDYAMH | GESWNWGSIGYACSVK | VGRGGGYFDY | 5.77 n.d. n.d. | 5.77 | 2/9 (4.38)
GFTFDDYAMN | GISWRSGSIGYADSVK | VGHGGGYFDY | n.d. n.d. n.d. | n.d. | 1/9 (5.23)
GFTFDDYAVH | GISWNSGSIGYADSVK | VQDGGGYFDY | n.d. 4.50 n.d. | 4.50 | 1/9 (3.61)